This series is described as follows: Stability of tocopheryl phosphate arginine complex in a beverage (pH, turbidity, degradation). The format is physicochemical. The method, then: In this example, the stability of the tocopheryl phosphate arginine complex (TP) in a beverage was investigated.
Tocopheryl phosphate arginine complex (equivalent α-tocopherol content of 50 mg/500 ml) was added to commercially available Musashi drinks (Musashi, Australia) a blue variety and an orange variety.
A 2% (w/v) tocopheryl phosphate arginine complex stock solution was prepared in water and filter-sterilised using a Millipore Millex-GP 25 mm, diameter 0.22 μm filter and sterile hypodermic syringe. Four ml was added to each 500 ml bottle using sterile conditions. Three treatment groups were used for each drink: 4° C., 37° C. and room temperature (RT). The drinks were monitored for bacterial growth and contamination on a weekly basis, both visually, and by plating a sample onto LB agar plates, which were grown for 48 hours at 37° C.

Our source for the pH values is US20050009787A1, “Micronutrient phosphates as dietary and health supplements” (priority 2001, published 2005).

Regarding tocopheryl phosphate arginine complex, the pH amounted to 4.34 (blue Musashi drink with TP (50 mg α-tocopherol equivalent/500 ml), 4° C.); 4.31 (blue Musashi drink with TP, 37° C.); 4.16 (blue Musashi drink with TP, RT); 3.42 (orange Musashi drink with TP, 4° C.); 3.29 (orange Musashi drink with TP, 37° C.); 3.28 (orange Musashi drink with TP, RT).
